Results reported in patent US10875851B2, “Factor XIIa inhibitors” (Merck Sharp & Dohme Corp., priority 2016, dated 2020).

The chains behind the UniProt entries cited, without tags or fusion partners. Residues count along the entry.
UniProt P00748, 373-615 limits assumed: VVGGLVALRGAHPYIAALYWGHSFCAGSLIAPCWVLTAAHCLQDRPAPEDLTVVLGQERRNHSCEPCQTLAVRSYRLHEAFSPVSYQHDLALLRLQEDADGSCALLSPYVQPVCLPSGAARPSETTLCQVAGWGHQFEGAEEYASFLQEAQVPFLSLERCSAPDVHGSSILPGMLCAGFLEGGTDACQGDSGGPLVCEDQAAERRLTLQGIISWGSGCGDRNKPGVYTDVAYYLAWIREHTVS

Target: human Factor XIIa (Homo sapiens (Human), UniProt P00748)
Assay: Factor XIIa Assay
Type: biochemical
Conditions: read-out: FXIIa IC50; purified human Factor XIIa 500 pM; substrate n-Acetyl-Lys-Pro-Arg-AFC 100 μM; pH 7.4

Row | Structure (SMILES) | IC50
1 | CS(=O)(=O)NCCCC[C@@H](NC1CCC2(CC1)CCN(Cc1ccccc1)C2)C(=O)N1CCN(C(=O)Oc2cccc(CN)c2)C[C@H]1C(=O)NCc1cccs1 (some centres unmarked) | 16 nM
2 | CN(C)CCCC[C@H](C(=O)N1CCN(C(=O)Oc2ccccc2Cl)C[C@H]1C(=O)NCc1cccs1)N(C)C1CCC2(CC1)CCN(Cc1ccccc1)C2 (some centres unmarked) | 1.1 nM
